{"source": "PubChem BioAssay AID524", "about": "(The Scripps Research Institute Molecular Screening Center, 2006)", "note": "This is a selection; strong and weak results do not stand in their true shares. Active and inactive are the calls of the source.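 Rule for the calls: active = inhibition above the screen-wide mean inhibition plus 3 SD (cut at about 21% in these data); inactive = the rest.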"}
{"target": "cAMP-dependent protein kinase catalytic subunit alpha (Homo sapiens) (UniProt P17612)", "assay": "PKA catalytic subunit kinase inhibition – biochemical, ATP-depletion luminescence, Kemptide substrate, primary screen (AID 524)", "conditions": "PKA Kemptide phosphorylation, Kinase-Glo ATP luminescence; at 6 µM; active compounds read high"}
{"smiles": "O=C(OC1CN2CCC1CC2)C12CC3CC(CC(C3)C1)C2", "note": "(stereo not given)", "inhibition": "inactive: -5.2%"}
{"smiles": "O=C(COc1ccccc1)OC1CN2CCC1CC2", "note": "(stereo not given)", "inhibition": "inactive: -0.5%"}
{"smiles": "COP1(=S)c2c(C)nn(CCC#N)c2N=C(c2ccc(F)cc2)N1C", "note": "(stereo not given)", "inhibition": "inactive: 6.2%"}
{"smiles": "Clc1n[nH]nc1-c1nn[nH][15n]1", "inhibition": "inactive: -1.8%"}
{"smiles": "O=P1(Nc2ccccn2)COc2ccccc2OC1", "inhibition": "inactive: 5.3%"}
{"smiles": "Cc1nn(-c2ccccc2)c2c1P(=O)(N1CCOCC1)N(C)C(c1ccccc1)=N2", "note": "(stereo not given)", "inhibition": "inactive: 8.5%"}
{"smiles": "O=P1(Nc2ccc(Br)cn2)COc2ccccc2OC1", "inhibition": "inactive: 9%"}
{"smiles": "Cc1ccc(OCC(=O)OC2CN3CCC2CC3)cc1", "note": "(stereo not given)", "inhibition": "inactive: 5.3%"}
{"smiles": "O=P1(Nc2ncccn2)COc2ccccc2OC1", "inhibition": "inactive: 3.6%"}
{"smiles": "CCOP1(=S)c2c(C)nn(CCC#N)c2N=C(c2ccccc2F)N1C", "note": "(stereo not given)", "inhibition": "inactive: 0%"}
{"smiles": "O=P(Nc1nccs1)(c1ccccc1)c1nc2ccccc2s1", "note": "(stereo not given)", "inhibition": "inactive: 3.5%"}
{"smiles": "CCOP1(=S)c2c(C)nn(CCC#N)c2N=C(c2ccc(F)cc2)N1C", "note": "(stereo not given)", "inhibition": "inactive: 9.6%"}
{"smiles": "Cc1cccc(OCC(=O)OC2CN3CCC2CC3)c1", "note": "(stereo not given)", "inhibition": "inactive: 4.4%"}
{"smiles": "O=P1(Nc2nc3ccc(Cl)cc3s2)COc2ccccc2O1", "note": "(stereo not given)", "inhibition": "inactive: -6%"}
{"smiles": "COC(=O)c1cc2c(s1)N=C(c1ccccc1)N(C)P2(=O)N1CCOCC1", "note": "(stereo not given)", "inhibition": "inactive: 5.9%"}
{"smiles": "O=C(OC1CN2CCC1CC2)c1cccc(Cl)c1", "note": "(stereo not given)", "inhibition": "inactive: -2.3%"}
{"smiles": "c1nnnn1CCn1cnnn1", "inhibition": "inactive: 2.8%"}
{"smiles": "O=P(Nc1nccs1)(c1ccccc1)c1ccccc1", "inhibition": "inactive: 7%"}
{"smiles": "CCc1nc2c(n1)c1c(non1O)c1c2no[n+]1[O-]", "inhibition": "inactive: 4.3%"}
{"smiles": "Cc1c2non([O-])c-2c(C)[n+](=O)[n+]1[O-]", "inhibition": "inactive: 12.7%"}
